This is an account of results in US10722599B2, “Lipid assemblies and uses thereof and some pH and electrostatic modulating lipids to be used in said assemblies” (Yissum Research Development Company of the Hebrew …, priority 2015, dated 2020).

The data set concerns BALB/c mice. Nature of the data set: In vivo toxicity, single IV escalating dose. As to conditions: as formulated siRNA, Ampholip1 up to 10 mg/kg, Ampholip2 up to 5 mg/kg, 24 hours and 7 days. The protocol: Each group comprised six (6) males and six (6) females BALB/cOlaHsd mice, where half of each group (3 males and 3 females) were assigned to 24 hours or 7 days termination time points, respectively. Animals were subjected to clinical hematology and biochemistry assessment at 24 hours and 7 days post dosing, followed by gross macroscopic examination. The following parameters were evaluated for toxicity: mortality, clinical signs, body weight, weight gain, hematology and biochemistry tests.

Take “1,2-di-glutamate-di-steroyl glycerol carbamoyl spermine [Ampholip 1]”: the gross pathological findings entry is listed as “no gross pathological findings”.
